This note sets out measurements from patent US20230270872A1, “CONJUGATE OF SAPONIN AND SINGLE-DOMAIN ANTIBODY, PHARMACEUTICAL COMPOSITION COMPRISING SAID CONJUGATE, THERAPEUTIC USE THEREOF” (SAPREME TECHNOLOGIES B.V., priority 2020, published 2023).

For the assay, the system named is human A431 tumor cells xenograft. Kind of assay: A431 xenograft tumor model, tumor volume and survival (Example 10). The class given is in vivo, mouse. The note with it: Balb/c nude mice. On the procedure: Female Balb/c nude mice were injected subcutaneously with a suspension of human A431 tumor cells. Under the skin of the mice, a human epidermal carcinoma developed in the xenograft animal tumor model. After injection of the tumor cells, the xenograft tumor was allowed to develop to a size of approximately 170-180 mm^3. The A431 tumor cells have the following characteristics: high EGFR expressors, medium CD71 expressors, low HER2 expressors.
In Table 6A, the results of the treatment of control mice and tumor-bearing mice are presented. Tumor-bearing mice were treated with the indicated antibodies directed to either human Her2/neu, human EGFR, or human CD71, which are cell-surface receptors on the xenograft tumor. Cetuximab was covalently conjugated with saponin SO1861. […] The dose of the ADCs was sub-optimal in the tumor model. That is to say, from previous experiments, it was established at which sub-optimal dose of the ADCs no tumor-regression or arrest of tumor growth would be observable.

As for “Cetuximab: monoclonal antibody recognizing and binding human EGFR”, the “outcome (death/euthanasia or survival)” value is “(death/euthanasia)”.

In the case of “Cetuximab-SO1861: SO1861-EMCH conjugated via cysteine residues to cetuximab”, the “outcome (death/euthanasia or survival)” value is on record as “death/euthanasia”. Besides, the “tumor size (volume)” value (sub-optimal ADC dose, tumor 170-180 mm^3 at start) is 2000 mm^3.
